# From PMC9916806, “Tachykinin Receptor-Selectivity of the Potential Glioblastoma-Targeted Therapy, DOTA-[Thi^8,Met(O2)^11]-Substance P” (International Journal of Molecular Sciences, 2023)
# Protein sequences, listed by entry. Tags and fused reporters are not part of them.
# UniProt P21452, whole entry: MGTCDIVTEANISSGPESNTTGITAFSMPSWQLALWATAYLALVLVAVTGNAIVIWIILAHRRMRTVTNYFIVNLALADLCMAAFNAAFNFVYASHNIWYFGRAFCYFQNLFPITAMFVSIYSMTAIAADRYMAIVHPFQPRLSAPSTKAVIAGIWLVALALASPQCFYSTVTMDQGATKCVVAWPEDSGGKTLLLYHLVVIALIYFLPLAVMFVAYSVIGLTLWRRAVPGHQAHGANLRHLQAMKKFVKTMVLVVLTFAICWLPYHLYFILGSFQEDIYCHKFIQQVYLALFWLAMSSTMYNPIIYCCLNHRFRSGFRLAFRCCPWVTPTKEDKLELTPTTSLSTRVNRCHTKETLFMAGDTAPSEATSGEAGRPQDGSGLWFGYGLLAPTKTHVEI
# Target: T1, NK2R (Homo sapiens, UniProt P21452)
# T1 construct: host or cells: HEK293-T
# Assay: IP accumulation assay, NK2R activation (HEK293-T cells)
# Assay type: cell-based
# Details: 1 µM SP; Supplemental Figure S3, % of cognate native ligand (NKA) response; single experiment (n=1); also ref [11]
# Text: pcDNA mammalian expression vectors encoding human NK3R (GenBank accession number: AY462098), NK2R (GenBank accession number: AY322545), NK1R (GenBank accession number: AY462099) and MRGPRX2 (GenBank accession number: NM_054030) were obtained from the Bloomsburg University cDNA Resource Center (www.cdna.org [accessed on 18 October 2018]). The NK1R, NK2R and NK3R vectors included an N-terminal 3xHA epitope tag. The empty vector, pcDNA3.1, was obtained from Thermo Fisher Scientific (Waltham, MA, USA). […] Talnetant was kindly supplied by Dr Mike Trower (NeRRe Therapeutics, Stevenage, UK).
# Modified human embryonic kidney cells (HEK293-T; American Tissue and Cell Culture Collection), which provide a ‘blank’ background (with little/no endogenous tachykinin receptor nor MRGPRX2 expression) and stably express large T-antigen for optimal expression of exogenous proteins, were utilised. […]
# The tachykinin receptors elicit intracellular signalling responses primarily through coupling to, and the activation of, Gαq/11 G proteins. […] These can be isolated using ion exchange chromatography and their radioactivity measured, with the amount of radiolabelled IP generated (i.e., the level of radioactivity measured) being proportional to the signalling activity of the receptor [48]. […]
smiles,measurement,value
"CSCC[C@H](NC(=O)[C@H](CC(C)C)NC(=O)CNC(=O)[C@H](Cc1ccccc1)NC(=O)[C@H](Cc1ccccc1)NC(=O)[C@H](CCC(N)=O)NC(=O)[C@H](CCC(N)=O)NC(=O)[C@@H]1CCCN1C(=O)[C@H](CCCCN)NC(=O)[C@@H]1CCCN1C(=O)[C@@H](N)CCCNC(=N)N)C(N)=O [SP, Substance P]",NK2R response to SP,able to elicit a response
